The subject of assay [1] is extracellular signal-regulated protein kinases (ERK). Briefly: EGF-dependent ERK phosphorylation in CHO cells expressing variant EGFR. Type of assay: cell-based, Chinese hamster. The settings on record: transiently transfected CHO cells, human EGF stimulation for 5 minutes. How it is done: The site-directed mutagenesis method was performed using the QuickChange® site-directed mutagenesis kit according to the instructions of the manufacturer (Stratagene). The mutation in the EGFR sequence was confirmed by DNA sequence analysis. CHO cells were cultured in Minimum Essential Medium α supplemented with 10% calf serum. By using the FuGENE6 method according to the manufacturer's recommendation (Roche), the cells were transfected with an expression vector carrying the wild type or variant receptor.
The expression of EGFR and the downstream ERKs activation in the transiently transfected CHO cells were determined according to Kim et al (Kim, J.-H. et al., Eur. J. Biochem. 269: 2323-2329, 2002). Moreover, immunoblot analyse were performed using an anti-EGFR polyclonal antibody (Upstate Biotechnology), an anti-phosphorus-p44/42 MAP kinase E10 monoclonal antibody, and an anti-MAP kinase polyclonal antibody (Cell Signaling Technology).

For assay [2], the system named is EGFR. Kind of assay: EGF-induced autophosphorylation of EGFR in transfected CHO cells. The settings on record: transiently transfected CHO cells. The class given is cell-based. Here is the method: (§1) EGFR autophosphorylation was determined by the method previously reported by Sato et al (Sato, C. et al., J. Biochem (Tokyo) 127: 65-72, 2000). As for the EGF-binding assay, the transiently transfected cells were maintained for 24 hours in a 24-well plate coated with fibronectin, and then starved for 24 hours in serum-free medium. […] Subsequently, the cells were lysed in 0.5 ml of 0.5 M NaOH, and then radioactivity was measured using a γ counter.

For assay [3], the system named is human EGF. Briefly: 125I-labeled EGF-binding assay on CHO cells expressing variant EGFR. The settings on record: 2 nM 125I-labeled EGF, 1 hour; transiently transfected CHO cells. How it is done:
as §1

With “F263A: EGFR variant, substitution of Phe263 with Ala”, in assay [1], the “EGF-dependent ERK phosphorylation (biological activity of variant EGFR)” value was “negligible effects”. As for “R285S/F263A: EGFR variant generated by a combination of R285S mutation with F263A”, the “EGF-induced EGFR autophosphorylation” value in assay [2] is given as “incapable of EGFR autophosphorylation”. The “affinity for EGF in 125I EGF-binding assay” value (shortened to “affinity for EGF”) in assay [3] is “much lower affinity for EGF”. In addition, in assay [1], the “EGF-dependent ERK phosphorylation (biological activity of variant EGFR)” value is “almost complete loss of the activity”.

For “R285S/Y251A: EGFR variant generated by a combination of R285S mutation with Y251A”, the “EGF-induced EGFR autophosphorylation” value in assay [2] is “incapable of EGFR autophosphorylation”. Besides, in assay [3], the “affinity for EGF” value is given as “much lower affinity for EGF”. Also, the “EGF-dependent ERK phosphorylation (biological activity of variant EGFR)” value in assay [1] is given as “almost complete loss of the activity”. “R285S: full-length EGFR variant, substitution of Arg285 with Ser”: in assay [1], the “EGF-dependent ERK phosphorylation (biological activity of variant EGFR)” value is recorded as “reduced the biological activity”.

With “R285Y: full-length EGFR variant, substitution of Arg285 with Tyr”, the “EGF-dependent ERK phosphorylation (biological activity of variant EGFR)” value in assay [1] is reported as “negligible effect”. Same read-out and setting: the entry for “Y251A: EGFR variant, substitution of Tyr251 with Ala” is “negligible effects”. In the case of “substitution of Arg405 with Glu: EGFR variant, substitution of Arg405 of domain III with Glu”, the “EGF-induced EGFR autophosphorylation” value in assay [2] is given as “abolished”. Also, the “affinity for EGF” value in assay [3] is “abolished”. The “EGF-dependent ERK phosphorylation (biological activity of variant EGFR)” value in assay [1] is “abolished”.

For the origin of these results see patent publication US7514240B2, “EGR-EGFR complex” (Japan Science and Technology Agency, priority 2002, dated 2009).
